Experimental data from publication PMC4724290 (Synapse (New York, N.Y.), 2015).
Counter-ions that a name gives are not always drawn.

Amino acid sequences for entries named in this document (tags omitted).
UniProt O55242, whole entry: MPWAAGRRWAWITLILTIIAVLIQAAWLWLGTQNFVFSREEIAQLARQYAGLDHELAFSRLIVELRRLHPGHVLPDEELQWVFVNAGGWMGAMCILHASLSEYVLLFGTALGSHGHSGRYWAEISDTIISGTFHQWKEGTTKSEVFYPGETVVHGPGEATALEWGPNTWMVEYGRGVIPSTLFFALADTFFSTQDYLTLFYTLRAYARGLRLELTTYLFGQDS

Key:
[1] = biological target: σ1 receptors (Mus musculus, UniProt O55242); assay: In vitro σ1 receptor binding, [^3H]; conditions: CD-1 mouse whole brain membranes
[2] = biological target: T1, σ2 receptors (Mus musculus, UniProt Q8VD00); assay: In vitro σ2 receptor binding, [^3H]DTG/; set-up: species or system CD-1 mouse; conditions: for Sigma2 nH: 3.0 nM [^3H]DTG/500 nM (+)pentazocine, 25 °C, 60 min
T1 sequence (Q8VD00 1-176): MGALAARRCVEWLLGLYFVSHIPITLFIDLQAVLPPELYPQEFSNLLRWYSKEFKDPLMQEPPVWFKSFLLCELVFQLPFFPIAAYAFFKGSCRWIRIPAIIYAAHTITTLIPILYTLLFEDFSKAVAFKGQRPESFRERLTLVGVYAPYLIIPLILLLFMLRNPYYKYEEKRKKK

Row | SMILES | Selectivity Ki Ratio σ2/σ1 [1] | Sigma2 nH [2] | σ2 affinity relative to Kovács and Larson (1995) value (lower) ([2]; 26810 vs 1740 nM) [fold]
1 | COc1ccc2c(c1)[C@]13CCCC[C@@H]1[C@H](C2)N(C)CC3 [Dextromethorphan, dextromethorphan hydrobromide] | 425 | 1.02 ± 0.07 | 15
2 | CC(C)=CCN1CC[C@]2(C)c3cc(O)ccc3C[C@H]1[C@H]2C [(+)-Pentazocine, (+)-pentazocine] | 404 | 0.86 ± 0.04 | –
